Only a part is listed here, and it is no random draw. Active and inactive are the calls of the source. Calls follow the shape of the dose curve; as a rule, active = well fitted inhibition curve with a large enough effect; inconclusive = small, poorly fitted or top-dose-only effect; inactive = no such curve, though single readings can be large or run the other way.

The chains behind the UniProt entries cited, without tags or fusion partners.
UniProt O75874, whole entry R132H: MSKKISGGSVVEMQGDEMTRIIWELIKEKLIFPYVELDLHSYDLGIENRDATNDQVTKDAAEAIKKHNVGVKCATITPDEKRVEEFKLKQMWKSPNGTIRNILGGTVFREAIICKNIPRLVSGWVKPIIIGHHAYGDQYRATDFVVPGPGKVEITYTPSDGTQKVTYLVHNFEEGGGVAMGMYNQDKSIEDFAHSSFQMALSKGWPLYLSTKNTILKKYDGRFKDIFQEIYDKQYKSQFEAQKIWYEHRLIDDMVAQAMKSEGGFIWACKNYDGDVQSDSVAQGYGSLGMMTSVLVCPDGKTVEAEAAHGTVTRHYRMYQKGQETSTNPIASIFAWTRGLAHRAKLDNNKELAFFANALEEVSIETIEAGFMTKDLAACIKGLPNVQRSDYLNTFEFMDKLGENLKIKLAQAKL

The record followed here is PubChem BioAssay AID602179 (National Center for Advancing Translational Sciences (NCATS), 2012).
% is scaled to controls: 0 for no effect and ±100 for the full control effect.

In this test the target is Isocitrate dehydrogenase [NADP] cytoplasmic (Homo sapiens) (UniProt O75874). Briefly: qHTS for Inhibitors of mutant isocitrate dehydrogenase 1 (IDH1): qHTS. Also: nearly all actives have a fitted effect of over 65% in size. To be noted: IDH1-R132H enzyme, NADPH consumption, diaphorase/resazurin fluorescence; at 76.6 µM (top of the series). The text has this: Unbiased genomic sequencing for 22 glioma genomes found recurrent mutation of isocitrate dehydrogenase 1 (IDH1) on chromosome 2q33-a gene encoding the cytosolic isoform of IIDH1associated with the tricarboxylic acid cycle (TCA) that catalyzes the oxidative decarboxylation of isocitrate, yielding alpha-ketoglutarate and CO2 via NADP+ to NADPH conversion. Subsequent studies confirmed the recurrent IDH mutations in up to 70% of secondary gliomas and in 10% of AML cases. […] This in effect defines IDH1 as an oncogene, and provides an extraordinary opportunity to discover chemical probes against mutant IDH1 that may translate into much needed new therapies for glioma and AML patients. […] NIH Chemical Genomics Center [NCGC] NIH Molecular Libraries Probe Centers Network [MLPCN] […]
IDH1-R132H (0.5 ug/mL) was dispensed into black, solid-bottom 1536-well plates at 3 uL/well in 20 mM Tris-HCl (pH 7.5), 150 mM NaCl, 10 mM MgCl2, 4 mM beta-ME, and 0.05% protease-free BSA. […] A pre-read was run on the Viewlux to identify fluorescent compounds (540 nm excitation filter, 598 nm emission filter, bodipy mirror and 2 second exposure). […] The plates were measured on an Envision plate reader for fluorescence signal using a 540 nm excitation filter and 590 nm emission filter with 10 flashes. […] Concentration-response curves were fitted to the signals arising from the resulting fluorescence. […]
(qHTS replaces the single test concentration by a dilution series.)
As for `C[C@H]1OP(=O)(Oc2ccccc2)[C@H](O)[C@H](O)[C@H]1N=[N+]=[N-]` (stereo partly specified), the activity change, negative = inhibition was inactive: -11.2%.
